Measurements taken from patent publication US10112907B2, “Substituted indazoles for treating tendon and/or ligament injuries” (NOVARTIS AG, priority 2016, dated 2018).

Protein sequences, listed by entry. Tags and fused reporters are not part of them. Residues count along the entry.
UniProt O60674, 808-1132: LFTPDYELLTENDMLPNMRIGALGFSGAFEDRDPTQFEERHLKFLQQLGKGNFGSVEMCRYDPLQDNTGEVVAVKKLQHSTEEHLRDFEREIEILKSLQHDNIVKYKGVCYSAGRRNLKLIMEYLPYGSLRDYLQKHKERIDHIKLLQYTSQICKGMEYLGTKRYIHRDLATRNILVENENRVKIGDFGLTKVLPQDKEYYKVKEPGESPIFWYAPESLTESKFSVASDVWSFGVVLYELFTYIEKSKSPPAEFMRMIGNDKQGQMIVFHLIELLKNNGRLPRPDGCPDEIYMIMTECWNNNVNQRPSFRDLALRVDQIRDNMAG
UniProt P29597, 888-1187: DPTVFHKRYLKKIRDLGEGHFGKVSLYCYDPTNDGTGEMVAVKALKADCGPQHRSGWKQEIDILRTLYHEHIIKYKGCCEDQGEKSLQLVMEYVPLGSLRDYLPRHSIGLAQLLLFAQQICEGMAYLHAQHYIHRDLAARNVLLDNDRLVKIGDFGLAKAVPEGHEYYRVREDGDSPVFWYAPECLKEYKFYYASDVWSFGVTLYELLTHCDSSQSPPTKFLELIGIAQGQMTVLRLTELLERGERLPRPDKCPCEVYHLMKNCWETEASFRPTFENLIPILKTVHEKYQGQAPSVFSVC

What was measured:
[1] = target: recombinant human Jak2 (aa808-1132) (Homo sapiens (Human), UniProt O60674); assay: Kinase selectivity panel, substrate peptide phosphorylation (Caliper); type: biochemical
[2] = target: recombinant human Tyk2 (aa888-1187) (Homo sapiens (Human), UniProt P29597); assay: as above; type: biochemical; conditions: 45 uM ATP

SMILES	IC50 [1] [µM]	IC50 [2] [µM]
CCS(=O)(=O)N1CC(CC#N)(n2cc(-c3ncnc4[nH]ccc34)cn2)C1	0.004	
O=C(Nc1nc2cccc(-c3ccc(CN4CCS(=O)(=O)CC4)cc3)n2n1)C1CC1 [reference compound]		0.78
CC[C@@](C)(Nc1ccnc(-c2c[nH]c3ncccc23)n1)C(=O)NCC(F)(F)F [reference compound]		1.5
